From patent EP2565276A1

Chains of the proteins cited; added tags and fusions are not shown.
UniProt P18031, whole entry C32S/C92S/C121S/C215S/L294C: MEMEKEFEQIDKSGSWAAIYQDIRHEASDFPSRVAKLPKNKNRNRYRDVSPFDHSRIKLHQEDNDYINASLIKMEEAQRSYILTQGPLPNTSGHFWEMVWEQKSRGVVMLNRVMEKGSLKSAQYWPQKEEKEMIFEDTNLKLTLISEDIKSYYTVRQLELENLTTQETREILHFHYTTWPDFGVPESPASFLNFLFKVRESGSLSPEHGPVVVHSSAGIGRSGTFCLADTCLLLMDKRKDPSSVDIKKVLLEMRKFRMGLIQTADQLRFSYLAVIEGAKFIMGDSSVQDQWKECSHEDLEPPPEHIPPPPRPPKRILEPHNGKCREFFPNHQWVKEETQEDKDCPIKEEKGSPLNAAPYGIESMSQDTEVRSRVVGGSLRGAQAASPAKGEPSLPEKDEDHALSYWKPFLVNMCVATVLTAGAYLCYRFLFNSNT
UniProt P18031, whole entry C32S/C92S/C121S/F182C/C215S: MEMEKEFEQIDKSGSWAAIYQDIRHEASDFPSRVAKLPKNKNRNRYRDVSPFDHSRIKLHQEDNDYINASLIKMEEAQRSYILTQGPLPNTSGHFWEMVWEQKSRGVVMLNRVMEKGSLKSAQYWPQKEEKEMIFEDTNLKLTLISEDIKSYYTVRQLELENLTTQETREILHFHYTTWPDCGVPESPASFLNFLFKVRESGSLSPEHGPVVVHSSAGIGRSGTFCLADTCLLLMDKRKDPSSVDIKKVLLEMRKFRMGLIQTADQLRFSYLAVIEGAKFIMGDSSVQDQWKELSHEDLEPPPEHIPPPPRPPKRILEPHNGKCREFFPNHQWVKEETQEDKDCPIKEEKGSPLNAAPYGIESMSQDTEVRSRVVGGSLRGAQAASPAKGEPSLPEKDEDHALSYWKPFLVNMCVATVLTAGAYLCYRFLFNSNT

Key:
PTP1B = PTP1B (Homo sapiens, UniProt P18031, C121S/C215S/C32S/C92S/F182C); assay: Fluorescence-based binding assay, acrylodan label in the WPD loop (F182C), for active site binders; settings: read-out: mean Kd, ratiometric change in acrylodan emission, R = 460 nm / 515 nm
acrylodan-labeled PTP1b = acrylodan-labeled PTP1b (Homo sapiens, UniProt P18031, C121S/C215S/C32S/C92S/L294C); assay: Binding and dissociation kinetics, acrylodan emission at a single wavelength (465 nm) over time, excess unlabeled PTP1b added; settings: emission at 465 nm over time; compound added first (loss of fluorescence intensity)

| Compound | Kd (PTP1B) [nM] | fluorescence after subsequent addition of a large excess of unlabeled PTP1b (acrylodan-labeled PTP1b) |
| --- | --- | --- |
| CC(C)(c1ccc(NS(=O)(=O)C(F)(F)F)cc1)c1ccc(C(C)(C)c2ccc(NS(=O)(=O)C(F)(F)F)cc2)cc1 | 2300 |  |
| CCc1oc2cc(S(=O)(=O)Nc3ccc(S(=O)(=O)Nc4nccs4)cc3)ccc2c1C(=O)c1cc(Br)c(O)c(Br)c1 |  | restored fluorescence to a higher level |
